Reference: ChEMBL document CHEMBL6103593, “Design of Selective BRD4 Inhibitors for the Treatment of Autosomal Dominant Polycystic Kidney Disease” (J Med Chem, 2025)

Sequences of proteins named here, by UniProt entry; tags and fusion partners are left off. A change or cut given only in a name is not applied to a line headed by its entry.
UniProt P08069, whole entry, looked up: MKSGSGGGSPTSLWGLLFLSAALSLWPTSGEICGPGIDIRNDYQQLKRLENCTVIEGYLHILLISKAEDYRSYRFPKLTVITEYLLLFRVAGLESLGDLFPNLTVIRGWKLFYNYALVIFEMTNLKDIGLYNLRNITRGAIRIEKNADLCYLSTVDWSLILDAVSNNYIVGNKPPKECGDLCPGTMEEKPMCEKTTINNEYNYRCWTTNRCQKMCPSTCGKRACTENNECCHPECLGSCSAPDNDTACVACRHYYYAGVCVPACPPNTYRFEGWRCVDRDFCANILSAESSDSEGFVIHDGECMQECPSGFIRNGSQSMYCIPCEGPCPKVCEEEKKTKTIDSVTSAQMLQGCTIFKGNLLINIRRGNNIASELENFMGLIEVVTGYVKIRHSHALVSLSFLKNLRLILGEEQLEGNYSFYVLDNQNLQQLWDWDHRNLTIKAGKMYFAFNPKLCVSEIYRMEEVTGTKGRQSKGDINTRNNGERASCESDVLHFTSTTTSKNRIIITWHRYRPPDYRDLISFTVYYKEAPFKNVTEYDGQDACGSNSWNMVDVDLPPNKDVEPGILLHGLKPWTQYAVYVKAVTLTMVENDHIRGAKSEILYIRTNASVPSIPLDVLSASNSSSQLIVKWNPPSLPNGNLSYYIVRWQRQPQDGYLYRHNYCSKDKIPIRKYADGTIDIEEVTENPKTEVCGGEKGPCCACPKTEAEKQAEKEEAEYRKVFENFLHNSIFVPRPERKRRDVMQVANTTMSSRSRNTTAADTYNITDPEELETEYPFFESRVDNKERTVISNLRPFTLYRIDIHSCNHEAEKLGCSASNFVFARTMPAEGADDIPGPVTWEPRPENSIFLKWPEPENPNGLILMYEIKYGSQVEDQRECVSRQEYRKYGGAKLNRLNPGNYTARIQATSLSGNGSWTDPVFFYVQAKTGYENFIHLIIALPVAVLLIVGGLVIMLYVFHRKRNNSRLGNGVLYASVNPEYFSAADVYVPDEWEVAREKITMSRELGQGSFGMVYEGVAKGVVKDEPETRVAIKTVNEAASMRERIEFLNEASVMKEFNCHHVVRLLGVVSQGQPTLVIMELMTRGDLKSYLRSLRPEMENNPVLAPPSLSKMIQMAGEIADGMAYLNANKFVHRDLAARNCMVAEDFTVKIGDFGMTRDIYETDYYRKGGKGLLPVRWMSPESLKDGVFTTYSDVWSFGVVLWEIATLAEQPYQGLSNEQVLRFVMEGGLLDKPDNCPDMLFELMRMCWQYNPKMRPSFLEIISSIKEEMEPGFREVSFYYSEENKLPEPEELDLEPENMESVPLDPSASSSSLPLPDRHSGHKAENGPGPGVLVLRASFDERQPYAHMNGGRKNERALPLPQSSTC
UniProt P35968, whole entry: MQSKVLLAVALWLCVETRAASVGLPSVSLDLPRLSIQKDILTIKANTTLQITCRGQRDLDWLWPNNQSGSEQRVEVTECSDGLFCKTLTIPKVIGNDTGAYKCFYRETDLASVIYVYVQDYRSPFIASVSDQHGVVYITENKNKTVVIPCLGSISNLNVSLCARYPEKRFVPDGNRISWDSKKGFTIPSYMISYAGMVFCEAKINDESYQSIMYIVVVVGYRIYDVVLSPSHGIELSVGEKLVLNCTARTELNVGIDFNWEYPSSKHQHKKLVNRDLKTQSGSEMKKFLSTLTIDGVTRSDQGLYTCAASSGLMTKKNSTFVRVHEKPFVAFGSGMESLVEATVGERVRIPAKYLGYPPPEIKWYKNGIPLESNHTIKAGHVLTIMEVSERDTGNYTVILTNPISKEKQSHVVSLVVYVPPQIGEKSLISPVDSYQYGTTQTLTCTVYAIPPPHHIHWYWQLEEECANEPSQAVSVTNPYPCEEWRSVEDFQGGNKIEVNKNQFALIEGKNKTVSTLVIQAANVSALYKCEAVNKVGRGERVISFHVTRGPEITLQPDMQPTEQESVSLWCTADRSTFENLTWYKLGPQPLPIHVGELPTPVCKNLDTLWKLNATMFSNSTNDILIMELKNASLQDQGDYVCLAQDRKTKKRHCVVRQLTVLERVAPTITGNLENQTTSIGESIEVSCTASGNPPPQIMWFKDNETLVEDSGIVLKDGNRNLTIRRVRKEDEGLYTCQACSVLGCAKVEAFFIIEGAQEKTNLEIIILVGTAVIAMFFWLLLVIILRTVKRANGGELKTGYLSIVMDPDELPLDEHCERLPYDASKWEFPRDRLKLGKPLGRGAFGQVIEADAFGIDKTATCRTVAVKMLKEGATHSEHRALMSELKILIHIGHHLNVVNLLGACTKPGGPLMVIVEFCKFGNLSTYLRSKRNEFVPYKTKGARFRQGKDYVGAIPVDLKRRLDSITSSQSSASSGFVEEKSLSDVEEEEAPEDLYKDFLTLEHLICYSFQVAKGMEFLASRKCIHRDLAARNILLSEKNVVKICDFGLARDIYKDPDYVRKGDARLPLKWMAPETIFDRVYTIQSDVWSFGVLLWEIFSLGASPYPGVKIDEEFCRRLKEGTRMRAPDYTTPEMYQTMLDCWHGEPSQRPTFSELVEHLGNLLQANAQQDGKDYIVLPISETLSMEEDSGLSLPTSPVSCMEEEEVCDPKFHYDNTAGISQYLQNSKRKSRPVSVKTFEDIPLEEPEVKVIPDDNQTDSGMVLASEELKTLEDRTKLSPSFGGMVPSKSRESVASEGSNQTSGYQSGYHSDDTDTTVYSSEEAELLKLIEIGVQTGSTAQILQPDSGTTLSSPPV
UniProt P07948: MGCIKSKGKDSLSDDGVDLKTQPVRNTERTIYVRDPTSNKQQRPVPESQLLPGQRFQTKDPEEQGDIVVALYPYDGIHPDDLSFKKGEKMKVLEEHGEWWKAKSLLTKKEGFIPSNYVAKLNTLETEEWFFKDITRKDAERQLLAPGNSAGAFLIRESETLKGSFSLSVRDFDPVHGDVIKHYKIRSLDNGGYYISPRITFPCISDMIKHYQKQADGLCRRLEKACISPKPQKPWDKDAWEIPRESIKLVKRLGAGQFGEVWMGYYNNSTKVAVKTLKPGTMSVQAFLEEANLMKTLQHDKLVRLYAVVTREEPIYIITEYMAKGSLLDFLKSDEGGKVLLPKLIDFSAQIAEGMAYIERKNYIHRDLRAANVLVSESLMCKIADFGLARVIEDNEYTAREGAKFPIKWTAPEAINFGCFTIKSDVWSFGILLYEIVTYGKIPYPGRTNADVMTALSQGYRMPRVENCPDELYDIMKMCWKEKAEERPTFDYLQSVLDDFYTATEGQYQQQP
UniProt P19784, whole entry, looked up: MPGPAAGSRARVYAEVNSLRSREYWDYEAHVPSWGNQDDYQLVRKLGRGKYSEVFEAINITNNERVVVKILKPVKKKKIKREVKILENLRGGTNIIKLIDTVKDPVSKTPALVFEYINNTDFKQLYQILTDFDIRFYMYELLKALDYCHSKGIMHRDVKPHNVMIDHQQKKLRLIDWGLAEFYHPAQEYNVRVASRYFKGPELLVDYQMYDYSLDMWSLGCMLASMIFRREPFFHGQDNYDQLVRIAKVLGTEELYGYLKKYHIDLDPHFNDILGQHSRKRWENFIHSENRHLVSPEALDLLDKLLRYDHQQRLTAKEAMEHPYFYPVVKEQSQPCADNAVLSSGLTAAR

Legend:
[1] = molecular target: T1, Bromodomain-containing protein 4 (Homo sapiens, UniProt O60885); experiment: Inhibition of BRD4 bromodomain 1 (44 to 168 residues) (unknown origin) extracted from Escherichia coli BL21 (D3) codon plus RIL cells at 1 uM incubated for 4 hrs by fluorescence anisotropy relative to control
[2] = molecular target: T1, Bromodomain-containing protein 4; experiment: Inhibition of BRD4 bromodomain 2 (332 to 460 residues) (unknown origin) extracted from Escherichia coli BL21 (D3) codon plus RIL cells at 1 uM incubated for 4 hrs by fluorescence anisotropy relative to control
[3] = molecular target: Insulin-like growth factor 1 receptor (Homo sapiens) (UniProt P08069); experiment: Inhibition of human IGF-1R at 1 uM relative to control
[4] = molecular target: Vascular endothelial growth factor receptor 2 (Homo sapiens) (UniProt P35968); experiment: Inhibition of human KDR at 1 uM relative to control
[5] = molecular target: Tyrosine-protein kinase Lyn (Homo sapiens) (UniProt P07948); experiment: Inhibition of human Lyn at 1 uM relative to control
[6] = molecular target: Casein kinase II subunit alpha' (Homo sapiens) (UniProt P19784); experiment: Inhibition of human CK2alpha2 (unknown origin) at 1 uM relative to control
[7] = molecular target: Dual specificity mitogen-activated protein kinase kinase 1 (Homo sapiens) (UniProt Q02750); experiment: Inhibition of human MEK1 (unknown origin) at 1 uM relative to control

Compound	inhibition [1] [%]	inhibition [2] [%]	further results
CC(C)N1c2cc(Nc3nccc(Nc4nn(C)c5ccccc45)n3)ccc2N(C)C(=O)[C@H]1C	–	–	inhibition [3]: > 30%; inhibition [4]: > 30%; inhibition [5]: > 30%
CC(C)N1c2cc(Nc3cccc(Nc4nn(C5CC5)c5ccccc45)c3)ccc2N(C)C(=O)[C@H]1C	20.1	60.5	–
CCc1cc(Nc2nn(C)c3ccccc23)nc(Nc2ccc3c(c2)N(C(C)C)[C@H](C)C(=O)N3C)n1	–	–	inhibition [6]: 10%; inhibition [7]: 10%

Now from value to compound, other results behind:

inhibition [1] [%]	inhibition [2] [%]	Compound	further results
46.2	58.2	CCn1nc(Nc2cccc(Nc3ccc4c(c3)N(C(C)C)[C@H](C)C(=O)N4C)c2)c2ccccc21	–
17.7	43.1	CC(C)N1c2cc(Nc3cccc(Nc4nn(C(C)C)c5ccccc45)c3)ccc2N(C)C(=O)[C@H]1C	–
47.7	64.8	CC(C)N1c2cc(Nc3cccc(Nc4nn(C)c5ccccc45)c3)ccc2N(C)C(=O)[C@H]1C	–
